Amino acid sequences for entries named in this document (tags omitted). A change or cut given only in a name is not applied to a line headed by its entry.
UniProt P35367, whole entry, looked up: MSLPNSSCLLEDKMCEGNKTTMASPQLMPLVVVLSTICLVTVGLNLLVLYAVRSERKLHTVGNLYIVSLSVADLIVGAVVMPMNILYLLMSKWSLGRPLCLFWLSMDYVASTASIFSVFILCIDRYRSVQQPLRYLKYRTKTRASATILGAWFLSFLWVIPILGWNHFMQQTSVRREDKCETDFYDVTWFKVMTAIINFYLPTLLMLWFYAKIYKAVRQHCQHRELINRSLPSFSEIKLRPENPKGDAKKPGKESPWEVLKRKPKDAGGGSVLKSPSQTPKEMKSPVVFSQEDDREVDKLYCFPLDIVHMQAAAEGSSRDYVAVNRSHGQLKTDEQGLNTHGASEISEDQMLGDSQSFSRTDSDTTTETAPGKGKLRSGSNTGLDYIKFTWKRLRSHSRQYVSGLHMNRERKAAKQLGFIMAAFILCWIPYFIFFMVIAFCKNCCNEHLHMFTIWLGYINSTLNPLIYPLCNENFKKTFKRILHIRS
UniProt P48039, whole entry, looked up: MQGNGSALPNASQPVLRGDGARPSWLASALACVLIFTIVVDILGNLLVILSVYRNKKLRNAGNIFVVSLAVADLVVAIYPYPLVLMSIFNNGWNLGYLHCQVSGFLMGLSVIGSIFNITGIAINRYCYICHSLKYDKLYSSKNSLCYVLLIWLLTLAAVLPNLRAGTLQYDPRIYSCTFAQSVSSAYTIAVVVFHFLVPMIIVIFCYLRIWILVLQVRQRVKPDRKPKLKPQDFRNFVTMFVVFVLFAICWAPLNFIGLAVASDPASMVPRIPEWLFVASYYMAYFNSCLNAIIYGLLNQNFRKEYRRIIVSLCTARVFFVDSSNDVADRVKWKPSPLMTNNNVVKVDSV
UniProt Q9UBS5, whole entry, looked up: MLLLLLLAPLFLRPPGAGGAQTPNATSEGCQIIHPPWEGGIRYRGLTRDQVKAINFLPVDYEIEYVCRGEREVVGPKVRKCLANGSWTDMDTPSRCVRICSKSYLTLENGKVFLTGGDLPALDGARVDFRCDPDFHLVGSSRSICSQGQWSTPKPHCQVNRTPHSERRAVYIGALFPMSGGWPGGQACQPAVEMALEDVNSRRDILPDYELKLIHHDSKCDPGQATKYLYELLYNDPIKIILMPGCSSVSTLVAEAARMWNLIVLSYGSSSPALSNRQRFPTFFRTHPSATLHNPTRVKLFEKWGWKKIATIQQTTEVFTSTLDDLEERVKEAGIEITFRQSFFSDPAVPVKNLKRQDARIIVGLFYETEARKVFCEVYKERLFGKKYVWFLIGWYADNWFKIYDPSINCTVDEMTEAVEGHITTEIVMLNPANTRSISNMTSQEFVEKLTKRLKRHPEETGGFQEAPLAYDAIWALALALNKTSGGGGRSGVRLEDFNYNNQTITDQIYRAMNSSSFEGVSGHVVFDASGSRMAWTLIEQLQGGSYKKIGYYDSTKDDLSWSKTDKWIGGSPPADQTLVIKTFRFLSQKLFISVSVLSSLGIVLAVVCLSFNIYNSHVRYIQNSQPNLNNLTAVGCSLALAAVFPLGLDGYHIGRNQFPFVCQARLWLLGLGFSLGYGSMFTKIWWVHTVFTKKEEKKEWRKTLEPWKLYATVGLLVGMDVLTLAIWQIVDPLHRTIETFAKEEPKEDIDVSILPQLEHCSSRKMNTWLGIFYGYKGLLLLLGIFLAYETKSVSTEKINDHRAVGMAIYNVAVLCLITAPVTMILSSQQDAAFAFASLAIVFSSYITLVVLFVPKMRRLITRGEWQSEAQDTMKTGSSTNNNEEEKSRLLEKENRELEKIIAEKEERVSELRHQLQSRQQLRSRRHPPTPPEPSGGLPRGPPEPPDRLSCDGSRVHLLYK
UniProt P43140: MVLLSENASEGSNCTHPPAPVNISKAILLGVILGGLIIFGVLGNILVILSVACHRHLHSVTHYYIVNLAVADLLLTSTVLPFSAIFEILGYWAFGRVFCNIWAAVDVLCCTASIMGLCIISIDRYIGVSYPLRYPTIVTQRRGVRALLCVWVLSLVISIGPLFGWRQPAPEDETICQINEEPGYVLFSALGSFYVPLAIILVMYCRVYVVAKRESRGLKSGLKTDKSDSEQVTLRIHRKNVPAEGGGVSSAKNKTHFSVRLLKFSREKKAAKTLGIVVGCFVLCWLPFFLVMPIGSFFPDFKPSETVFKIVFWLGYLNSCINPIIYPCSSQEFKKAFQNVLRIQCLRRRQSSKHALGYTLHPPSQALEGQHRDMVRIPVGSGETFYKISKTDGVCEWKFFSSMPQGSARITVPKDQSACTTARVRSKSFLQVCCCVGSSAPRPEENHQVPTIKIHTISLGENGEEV
UniProt P30542, whole entry, looked up: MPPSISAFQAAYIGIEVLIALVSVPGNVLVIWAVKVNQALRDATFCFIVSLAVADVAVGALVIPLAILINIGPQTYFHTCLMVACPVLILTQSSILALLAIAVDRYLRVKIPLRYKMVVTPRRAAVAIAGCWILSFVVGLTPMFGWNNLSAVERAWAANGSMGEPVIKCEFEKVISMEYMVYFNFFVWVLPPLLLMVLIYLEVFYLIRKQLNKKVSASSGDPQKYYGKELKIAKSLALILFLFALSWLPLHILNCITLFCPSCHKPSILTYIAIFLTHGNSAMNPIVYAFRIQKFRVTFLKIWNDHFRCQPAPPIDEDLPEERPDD
UniProt P15823, whole entry, looked up: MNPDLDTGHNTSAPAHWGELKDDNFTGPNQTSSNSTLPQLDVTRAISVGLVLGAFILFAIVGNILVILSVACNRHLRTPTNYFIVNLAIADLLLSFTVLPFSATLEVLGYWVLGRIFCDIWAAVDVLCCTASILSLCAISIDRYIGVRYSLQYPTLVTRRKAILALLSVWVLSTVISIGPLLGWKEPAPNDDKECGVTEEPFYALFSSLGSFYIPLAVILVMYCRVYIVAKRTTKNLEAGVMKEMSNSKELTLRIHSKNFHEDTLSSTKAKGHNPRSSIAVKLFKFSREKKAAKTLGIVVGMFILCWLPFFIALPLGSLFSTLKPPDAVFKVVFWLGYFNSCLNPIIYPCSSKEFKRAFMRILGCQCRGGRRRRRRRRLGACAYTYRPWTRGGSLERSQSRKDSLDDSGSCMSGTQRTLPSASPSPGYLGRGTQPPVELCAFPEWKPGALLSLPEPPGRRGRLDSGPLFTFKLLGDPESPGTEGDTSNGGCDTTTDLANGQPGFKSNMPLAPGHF
UniProt P03372, whole entry, looked up: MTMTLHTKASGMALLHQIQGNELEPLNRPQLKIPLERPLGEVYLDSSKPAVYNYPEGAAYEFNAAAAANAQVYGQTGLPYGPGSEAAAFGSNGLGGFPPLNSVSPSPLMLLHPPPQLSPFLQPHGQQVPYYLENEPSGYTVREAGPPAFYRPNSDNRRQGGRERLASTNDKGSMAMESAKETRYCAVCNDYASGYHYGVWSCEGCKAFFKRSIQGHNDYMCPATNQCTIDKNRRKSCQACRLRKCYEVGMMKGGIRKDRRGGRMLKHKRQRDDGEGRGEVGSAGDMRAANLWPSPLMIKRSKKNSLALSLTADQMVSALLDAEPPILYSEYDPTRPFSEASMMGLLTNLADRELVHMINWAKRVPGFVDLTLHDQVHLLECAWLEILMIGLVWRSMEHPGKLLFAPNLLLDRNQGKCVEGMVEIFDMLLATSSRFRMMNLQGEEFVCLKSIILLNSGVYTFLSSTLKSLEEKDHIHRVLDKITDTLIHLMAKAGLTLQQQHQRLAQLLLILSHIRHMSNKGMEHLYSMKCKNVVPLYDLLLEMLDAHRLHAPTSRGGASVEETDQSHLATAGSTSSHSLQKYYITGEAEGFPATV
UniProt P21554, whole entry, looked up: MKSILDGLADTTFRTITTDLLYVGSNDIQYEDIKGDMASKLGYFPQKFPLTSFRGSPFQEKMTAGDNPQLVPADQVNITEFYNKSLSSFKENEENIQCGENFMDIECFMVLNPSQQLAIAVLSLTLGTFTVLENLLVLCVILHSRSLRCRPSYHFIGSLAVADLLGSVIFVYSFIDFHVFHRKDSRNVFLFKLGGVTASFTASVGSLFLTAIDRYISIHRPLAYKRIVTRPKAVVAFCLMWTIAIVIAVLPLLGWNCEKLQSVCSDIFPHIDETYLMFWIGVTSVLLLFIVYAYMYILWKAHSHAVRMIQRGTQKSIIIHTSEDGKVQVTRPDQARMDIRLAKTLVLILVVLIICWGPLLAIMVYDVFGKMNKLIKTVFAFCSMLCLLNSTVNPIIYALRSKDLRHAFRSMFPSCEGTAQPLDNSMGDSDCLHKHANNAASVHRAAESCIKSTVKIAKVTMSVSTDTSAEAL
UniProt P0DMS8, whole entry, looked up: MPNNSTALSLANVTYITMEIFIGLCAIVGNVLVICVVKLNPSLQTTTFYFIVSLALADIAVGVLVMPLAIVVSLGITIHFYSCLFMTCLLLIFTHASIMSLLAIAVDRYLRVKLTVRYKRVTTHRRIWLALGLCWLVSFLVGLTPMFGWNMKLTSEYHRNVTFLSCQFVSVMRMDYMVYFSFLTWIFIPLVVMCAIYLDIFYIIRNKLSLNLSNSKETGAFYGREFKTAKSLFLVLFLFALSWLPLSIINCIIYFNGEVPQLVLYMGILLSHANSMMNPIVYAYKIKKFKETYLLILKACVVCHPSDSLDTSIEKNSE
UniProt Q12809: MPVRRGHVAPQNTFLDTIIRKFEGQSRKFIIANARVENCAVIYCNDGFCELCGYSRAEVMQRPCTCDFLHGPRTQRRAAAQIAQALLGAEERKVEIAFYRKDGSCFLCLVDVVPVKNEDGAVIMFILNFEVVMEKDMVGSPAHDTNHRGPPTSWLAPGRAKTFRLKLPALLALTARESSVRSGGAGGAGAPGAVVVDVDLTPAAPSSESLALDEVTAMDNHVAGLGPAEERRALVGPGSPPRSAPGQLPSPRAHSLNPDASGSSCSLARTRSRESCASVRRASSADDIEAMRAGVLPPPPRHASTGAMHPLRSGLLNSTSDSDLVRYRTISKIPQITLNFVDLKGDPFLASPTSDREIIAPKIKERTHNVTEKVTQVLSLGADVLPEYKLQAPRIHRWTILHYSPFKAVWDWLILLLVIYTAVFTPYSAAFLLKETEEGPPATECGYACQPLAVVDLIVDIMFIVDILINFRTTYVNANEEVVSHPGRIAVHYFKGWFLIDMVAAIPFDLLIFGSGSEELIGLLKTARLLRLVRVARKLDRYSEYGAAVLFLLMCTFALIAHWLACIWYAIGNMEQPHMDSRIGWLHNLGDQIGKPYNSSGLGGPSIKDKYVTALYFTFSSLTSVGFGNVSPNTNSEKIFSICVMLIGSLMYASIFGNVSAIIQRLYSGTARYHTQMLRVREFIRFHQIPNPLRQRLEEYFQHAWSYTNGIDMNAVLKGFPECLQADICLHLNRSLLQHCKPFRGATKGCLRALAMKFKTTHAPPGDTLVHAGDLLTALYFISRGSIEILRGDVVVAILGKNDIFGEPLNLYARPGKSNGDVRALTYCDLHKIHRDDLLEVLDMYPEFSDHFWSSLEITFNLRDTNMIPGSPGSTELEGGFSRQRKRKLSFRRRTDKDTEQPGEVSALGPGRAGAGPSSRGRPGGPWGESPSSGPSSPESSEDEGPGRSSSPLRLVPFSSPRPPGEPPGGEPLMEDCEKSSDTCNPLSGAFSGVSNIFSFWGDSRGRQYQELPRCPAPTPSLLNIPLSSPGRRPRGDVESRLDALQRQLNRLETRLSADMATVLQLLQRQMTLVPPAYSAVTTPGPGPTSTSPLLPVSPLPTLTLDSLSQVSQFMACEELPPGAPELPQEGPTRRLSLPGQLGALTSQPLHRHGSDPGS
UniProt P31645, whole entry, looked up: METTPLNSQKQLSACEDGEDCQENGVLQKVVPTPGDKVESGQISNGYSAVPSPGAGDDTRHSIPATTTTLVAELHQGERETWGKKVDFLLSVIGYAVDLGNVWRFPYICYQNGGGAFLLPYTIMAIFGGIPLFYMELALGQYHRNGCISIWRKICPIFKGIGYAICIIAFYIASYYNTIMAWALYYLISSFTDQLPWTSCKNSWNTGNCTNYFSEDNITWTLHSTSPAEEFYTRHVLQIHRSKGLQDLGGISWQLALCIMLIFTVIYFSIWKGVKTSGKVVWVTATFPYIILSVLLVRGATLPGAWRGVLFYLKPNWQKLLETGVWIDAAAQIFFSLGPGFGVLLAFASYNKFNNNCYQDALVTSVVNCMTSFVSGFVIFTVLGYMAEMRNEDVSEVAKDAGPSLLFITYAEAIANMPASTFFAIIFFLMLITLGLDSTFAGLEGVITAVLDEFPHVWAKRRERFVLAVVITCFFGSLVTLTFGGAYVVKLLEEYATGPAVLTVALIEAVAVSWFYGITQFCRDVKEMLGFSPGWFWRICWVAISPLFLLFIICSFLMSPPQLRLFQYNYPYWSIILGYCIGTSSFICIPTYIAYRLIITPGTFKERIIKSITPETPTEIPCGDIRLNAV

In article PMC12142581:

How the values were obtained:
[1] = Binding in brain homogenate, equilibrium dialysis; details: fraction unbound
[2] = test system: amphetamine-induced increases in CBV; test: Pharmacologic MRI (phMRI), cerebral blood volume
Dopamine D2S = Dopamine D2S (Homo sapiens, UniProt P14416); test: Lead Profiling Screen
Histamine H1 = Histamine H1 (Homo sapiens, UniProt P35367); test: Lead Profiling Screen
Phorbol Ester = test: Lead Profiling Screen
Melatonin MT1 = Melatonin MT1 (Homo sapiens, UniProt P48039); test: Lead Profiling Screen
Transporter, GABA = Transporter, GABA (Rattus norvegicus, UniProt P23978); test: Lead Profiling Screen
Glutamate, Kainate = test: Lead Profiling Screen
Bradykinin B2 = Bradykinin B2 (Homo sapiens, UniProt P30411); test: Lead Profiling Screen
Opiate δ1 (OP1, DOP) = Opiate δ1 (OP1, DOP) (Homo sapiens, UniProt P41143); test: Lead Profiling Screen
GABAB1A = GABAB1A (Homo sapiens, UniProt Q9UBS5); test: Lead Profiling Screen
Dopamine D4.2 = Dopamine D4.2 (Homo sapiens, UniProt P21917, DEL265-296); test: Lead Profiling Screen
Adrenergic β1 = Adrenergic β1 (Homo sapiens, UniProt P08588); test: Lead Profiling Screen
Muscarinic M1 = Muscarinic M1 (Homo sapiens, UniProt P11229); test: Lead Profiling Screen
Rolipram = test: Lead Profiling Screen
Adrenergic α1A = Adrenergic α1A (Rattus norvegicus, UniProt P43140); test: Lead Profiling Screen
Purinergic P2Y = test: Lead Profiling Screen
Dopamine D1 = Dopamine D1 (Homo sapiens, UniProt P21728); test: Lead Profiling Screen
[3] = test system: GABAA, Flunitrazepam, Central; test: Lead Profiling Screen
[4] = molecular target: Serotonin (5-Hydroxytryptamine) 5-HT2B (Homo sapiens, UniProt P41595); test: Lead Profiling Screen
[5] = test system: Calcium Channel L-Type, Benzothiazepine; test: Lead Profiling Screen
Adenosine A1 = Adenosine A1 (Homo sapiens, UniProt P30542); test: Lead Profiling Screen
Glucocorticoid = Glucocorticoid (Homo sapiens, UniProt P04150); test: Lead Profiling Screen
Calcium Channel N-Type = Calcium Channel N-Type (Rattus norvegicus, UniProt Q02294); test: Lead Profiling Screen
[6] = molecular target: Serotonin (5-Hydroxytryptamine) 5-HT1A (Homo sapiens, UniProt P08908); test: Lead Profiling Screen
[7] = molecular target: Platelet Activating Factor (PAF) (Homo sapiens, UniProt P25105); test: Lead Profiling Screen
Endothelin ETB = Endothelin ETB (Homo sapiens, UniProt P24530); test: Lead Profiling Screen
Adrenergic α1B = Adrenergic α1B (Rattus norvegicus, UniProt P15823); test: Lead Profiling Screen
Opiate κ (OP2, KOP) = Opiate κ (OP2, KOP) (Homo sapiens, UniProt P41145); test: Lead Profiling Screen
Prostanoid EP4 = Prostanoid EP4 (Homo sapiens, UniProt P35408); test: Lead Profiling Screen
Dopamine D3 = Dopamine D3 (Homo sapiens, UniProt P35462); test: Lead Profiling Screen
Adenosine A2A = Adenosine A2A (Homo sapiens, UniProt P29274); test: Lead Profiling Screen
Sodium Channel, Site 2 = test: Lead Profiling Screen
Estrogen ERα = Estrogen ERα (Homo sapiens, UniProt P03372); test: Lead Profiling Screen
Cannabinoid CB1 = Cannabinoid CB1 (Homo sapiens, UniProt P21554); test: Lead Profiling Screen
Androgen (Testosterone) = Androgen (Testosterone) (Homo sapiens, UniProt P10275); test: Lead Profiling Screen
Adenosine A3 = Adenosine A3 (Homo sapiens, UniProt P0DMS8); test: Lead Profiling Screen
GABAA, Muscimol, Central = test: Lead Profiling Screen
Potassium Channel hERG = Potassium Channel hERG (Homo sapiens, UniProt Q12809); test: Lead Profiling Screen
Neuropeptide Y Y1 = Neuropeptide Y Y1 (Homo sapiens, UniProt P25929); test: Lead Profiling Screen
[8] = molecular target: Transporter, Serotonin (5-Hydroxytryptamine) (SERT) (Homo sapiens, UniProt P31645); test: Lead Profiling Screen
Nicotinic Acetylcholine = test: Lead Profiling Screen

Cc1nnc2sc3c(NCc4ccc(C(C)(C)O)cc4)ncnc3c2c1C
rat fu,brain [1]: 0.015
CBV response, compound alone ([2]; 10 mg/kg po alone): no significant CBV responses
effect on amphetamine-evoked increases in CBV ([2]; 1 or 10 mg/kg p.o., 30 min pretreatment, amphetamine 1 mg/kg s.c.): dose-dependently attenuated amphetamine-evoked increases in CBV
% inh at 10 μM (Dopamine D2S): 11%
% inh at 10 μM (Histamine H1): 5%
% inh at 10 μM (Phorbol Ester): -1%
% inh at 10 μM (Melatonin MT1): 14%
% inh at 10 μM (Transporter, GABA): -3%
% inh at 10 μM (Glutamate, Kainate): 26%
% inh at 10 μM (Bradykinin B2): -7%
% inh at 10 μM (Opiate δ1 (OP1, DOP)): 5%
% inh at 10 μM (GABAB1A): -3%
% inh at 10 μM (Dopamine D4.2): 13%
% inh at 10 μM (Adrenergic β1): 12%
% inh at 10 μM (Muscarinic M1): 2%
% inh at 10 μM (Rolipram): 8%
% inh at 10 μM (Adrenergic α1A): 19%
% inh at 10 μM (Purinergic P2Y): 0%
% inh at 10 μM (Dopamine D1): 6%
% inh at 10 μM [3]: 13%
% inh at 10 μM [4]: -6%
% inh at 10 μM [5]: 19%
% inh at 10 μM (Adenosine A1): 45%
% inh at 10 μM (Glucocorticoid): 16%
% inh at 10 μM (Calcium Channel N-Type): 15%
% inh at 10 μM [6]: -8%
% inh at 10 μM [7]: 4%
% inh at 10 μM (Endothelin ETB): 8%
% inh at 10 μM (Adrenergic α1B): 9%
% inh at 10 μM (Opiate κ (OP2, KOP)): 2%
% inh at 10 μM (Prostanoid EP4): 22%
% inh at 10 μM (Dopamine D3): 1%
% inh at 10 μM (Adenosine A2A): 50%
% inh at 10 μM (Sodium Channel, Site 2): 23%
% inh at 10 μM (Estrogen ERα): 5%
% inh at 10 μM (Cannabinoid CB1): 4%
% inh at 10 μM (Androgen (Testosterone)): 3%
% inh at 10 μM (Adenosine A3): 17%
% inh at 10 μM (GABAA, Muscimol, Central): 5%
% inh at 10 μM (Potassium Channel hERG): 2%
% inh at 10 μM (Neuropeptide Y Y1): 13%
% inh at 10 μM [8]: -10%
% inh at 10 μM (Nicotinic Acetylcholine): -5%
